# Measured affinities in a library of Ab-91 heavy chain variants

Reference: Engelhart et al. 2022, doi:10.1038/s41597-022-01779-4. File: FLAb, binding data.

Binding partner: SARS-CoV-2 spike HR2 peptide, sequence PDVDLGDISGINAS.

Parent: Ab-91, a human scFv built as VL, a 15-residue (Gly4Ser)3 linker, VH. Only the CDRs of the heavy chain vary.
VL: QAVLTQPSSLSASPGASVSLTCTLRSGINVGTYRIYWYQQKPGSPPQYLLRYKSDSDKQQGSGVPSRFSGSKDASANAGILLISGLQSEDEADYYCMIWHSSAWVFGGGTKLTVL
VH: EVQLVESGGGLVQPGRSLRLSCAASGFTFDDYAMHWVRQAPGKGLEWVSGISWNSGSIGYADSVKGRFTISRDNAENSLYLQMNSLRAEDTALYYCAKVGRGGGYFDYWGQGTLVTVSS

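Phage display of a naive human antibody library on the peptide gave the parent. AAYL51 was designed without a model: most single CDR substitutions and a random sample of double and triple ones. AlphaSeq pools MATa yeast showing the antibodies with MATalpha yeast showing the peptide. The frequency of each diploid, read from paired DNA barcodes, reflects how well the two displayed proteins bind. A regression on co-assayed BCL2-family reference pairs converts the normalised counts of each replicate to an apparent Kd. Mating was done three times.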

Variants are written as CDR1, CDR2 and CDR3 of the heavy chain (limits as in the source). Parent: GFTFDDYAMH, GISWNSGSIGYADSVK, VGRGGGYFDY.
Every variant below is changed at S63 of the VH (sequential numbering).
Kd is apparent (estimated from mating counts) and averaged on the log scale over replicates with a signal. Smaller is tighter.
"no signal" means that the variant was in the library but no mating with the target was seen in any replicate; the authors take this as a sign of poor binding, and no number exists.
In this assay the parent's reference entry averaged 72 nM; its copy inside this library read 7.5 nM.

For GFTFDDYAMH, GISWNSGSIGYADQVK, VGRGFGYLDY, the assay gave 19 nM (3 of 3 replicates; controls 5 of 9).
For GFTFDDYGMH, GISWNQGSIGYADIVK, VGRGGGYFDY, the assay gave 37 nM (3 of 3 replicates; controls 2 of 9).
For GFTFDDYHMH, GISWNSGSIGYADIVK, VGRGGGTFDY, the assay gave no signal (0 of 3 replicates; controls 0 of 9).
For GFTFDDYAQH, GISWNSGSIGYADTVK, VGKGGGYFDY, the assay gave no signal (0 of 3 replicates; controls 0 of 9).
For GFTFVDYAMH, GISWNWGSIGYADAVK, VGRGGGYFDY, the assay gave 420 µM (3 of 3 replicates; controls 5 of 9).
For GFTFDDYAMH, GISWNSGFIGYADCVA, VGRGGGYFDY, the assay gave no signal (0 of 3 replicates; controls 0 of 9).
For GFTFDDYNMH, GISWNSGSIGYADIIK, VGRGGGYFDY, the assay gave no signal (0 of 3 replicates; controls 0 of 9).
For GFTFDDYAMH, GISWNSGSINYADAVK, VGRGGGYFDY, the assay gave no signal (0 of 3 replicates; controls 0 of 9).
For GFTFDDYAMH, GISWNSGFIGYADWVK, VGRGGGYFDH, the assay gave 44 nM (3 of 3 replicates; controls 1 of 9).
For GFTFDDYAMH, GISWNSGSGGYADQVK, NGRGGGYFDY, the assay gave 1.5 µM (1 of 3 replicates; controls 1 of 9).
For GFTFDDYAMH, GISWNSGSIGYADYMK, VGRGGGYFDW, the assay gave 13 µM (3 of 3 replicates; controls 4 of 9).
For GFTFDDYAME, GISCNSGSIGYADCVK, VGRGGGYFDY, the assay gave 10 µM (1 of 3 replicates; controls 0 of 9).
For GFTFDDYARH, GISWNSGSIGYADMVK, VGRGGGNFDY, the assay gave no signal (0 of 3 replicates; controls 1 of 9).
For GFTFDDYAHH, GISWNSGSIGYADCVK, VGRGGGYFIY, the assay gave 11 µM (1 of 3 replicates; controls 3 of 9).
For GFTFDDYAMH, GISWNSGSHGYADRVK, VGRGGNYFDY, the assay gave no signal (0 of 3 replicates; controls 0 of 9).
For GSTFDDYAMH, GISWNSGSIGYRDEVK, VGRGGGYFDY, the assay gave no signal (0 of 3 replicates; controls 3 of 9).
For GFTIDDYAMH, GISWNSGSIGYADEVK, VGRGGGYFDI, the assay gave 8.6 nM (3 of 3 replicates; controls 0 of 9).
For GFTFDDYAMH, GISWNSHSIGYADQVK, NGRGGGYFDY, the assay gave 13 µM (2 of 3 replicates; controls 0 of 9).
For GFTFDFYAMH, GISWNTGSIGYADPVK, VGRGGGYFDY, the assay gave no signal (0 of 3 replicates; controls 0 of 9).
For GFTFDDYAMH, GVYWNSGSIGYADKVK, VGRGGGYFDY, the assay gave 29 µM (1 of 3 replicates; controls 2 of 9).
For GFTFDDYAMH, GISWNSGSIGYADWVK, VGRGGGYKDK, the assay gave no signal (0 of 3 replicates; controls 1 of 9).
For GFTFDDYAMH, GISWNSGSTGYADHVK, VDRGGGYFDY, the assay gave 1.0 µM (1 of 3 replicates; controls 1 of 9).
For GFTFDDYAMH, GISWNSGSIGYWDHVK, VGRGGGYFPY, the assay gave no signal (0 of 3 replicates; controls 1 of 9).
For GFTHDDYAMH, GISWNSGSIGYSDRVK, VGRGGGYFDY, the assay gave 250 nM (3 of 3 replicates; controls 4 of 9).
For GFTFDDYAMH, GISWNWGWIGYADLVK, VGRGGGYFDY, the assay gave 15 µM (2 of 3 replicates; controls 3 of 9).
For GFTFCDYAMH, GISWNSGSIGGADMVK, VGRGGGYFDY, the assay gave 3.4 µM (2 of 3 replicates; controls 1 of 9).
For GFTFDDYAPH, GISWNSGSIGYADKVK, VGTGGGYFDY, the assay gave 76 nM (3 of 3 replicates; controls 0 of 9).
For GFTFDDYAMH, HISWNSGSIGYADIVK, VMRGGGYFDY, the assay gave no signal (0 of 3 replicates; controls 1 of 9).
For GFTFDDYAMH, GISINSGSIGYADHSK, VGRGGGYFDY, the assay gave no signal (0 of 3 replicates; controls 0 of 9).
For GFTFDDYAMH, GISWPSGSIGYADQQK, VGRGGGYFDY, the assay gave 3.1 µM (2 of 3 replicates; controls 1 of 9).
For GFTFDDYAMH, GISWNSGGIGYAYIVK, VGRGGGYFDY, the assay gave 94 µM (1 of 3 replicates; controls 2 of 9).
For GSTFDDYAMH, GISWNSGSIGYADDVK, VGRGGNYFDY, the assay gave 38 µM (1 of 3 replicates; controls 2 of 9).
For GFTFDDYAMH, PISWNSGSVGYADAVK, VGRGGGYFDY, the assay gave no signal (0 of 3 replicates; controls 2 of 9).
For GFTFDDYAMH, CISWNSGSIGYAIAVK, VGRGGGYFDY, the assay gave 900 µM (1 of 3 replicates; controls 1 of 9).
For GFTFDDYAMH, GISWNSESIGYADDVK, VGRGGYYFDY, the assay gave no signal (0 of 3 replicates; controls 3 of 9).
For GFTFDDYAMH, GISWNSGSIGYADDVK, VGRGGGYFDY, the assay gave 290 µM (3 of 3 replicates; controls 7 of 9).
For GFTFDDYAMH, GISWNSGSIGYADKVK, VGRIGGYFDY, the assay gave no signal (0 of 3 replicates; controls 2 of 9).
For PFTFDDYAMH, GISWNSGSIGYADTVK, VNRGGGYFDY, the assay gave no signal (0 of 3 replicates; controls 0 of 9).
For GFDFDDYAMH, GISWNSGSIGYADMVK, YGRGGGYFDY, the assay gave 21 µM (2 of 3 replicates; controls 3 of 9).
For GFQFDDYAMH, GISWNSGSIGYAMEVK, VGRGGGYFDY, the assay gave 98 nM (3 of 3 replicates; controls 2 of 9).
For GFTFDDYAMH, RDSWNSGSIGYADRVK, VGRGGGYFDY, the assay gave no signal (0 of 3 replicates; controls 0 of 9).
For GFTFDDYAMH, GRSWNSGSIGYADIVK, VGRGGGYFDY, the assay gave 410 µM (1 of 3 replicates; controls 4 of 9).
For GFTFDDYAMH, GISWNSPSIGCADFVK, VGRGGGYFDY, the assay gave 120 µM (1 of 3 replicates; controls 1 of 9).
For GFTFDDYAMH, GISWNSGSLGYADGVK, VGRGGGYFDY, the assay gave 31 nM (3 of 3 replicates; controls 4 of 9).
For GFEFDDYAMH, GISWNSGSIGYADQVK, VGRGGGYFDY, the assay gave 11 nM (3 of 3 replicates; controls 2 of 9).
For WPTFDDYAMH, GISWNSGSIGYADYVK, VGRGGGYFDY, the assay gave 44 µM (1 of 3 replicates; controls 2 of 9).
For GFTFDDYAMH, GISLNSGSIGYADTVK, VGRGGGYFDP, the assay gave 20 µM (1 of 3 replicates; controls 1 of 9).
For GFTFDDYAMH, GISWNSGSIGYADEVK, VGRGGGYVDY, the assay gave 130 µM (2 of 3 replicates; controls 8 of 9).
For GFTPDDYAMH, GISWNSGSIRYADYVK, VGRGGGYFDY, the assay gave 56 µM (2 of 3 replicates; controls 4 of 9).

Picked from the list: the 3 lowest averages where every replicate gave a value.

With GFTIDDYAMH, GISWNSGSIGYADEVK, VGRGGGYFDI the result was 8.6 nM (3 of 3 replicates; controls 0 of 9).
With GFEFDDYAMH, GISWNSGSIGYADQVK, VGRGGGYFDY the result was 11 nM (3 of 3 replicates; controls 2 of 9).
With GFTFDDYAMH, GISWNSGSIGYADQVK, VGRGFGYLDY the result was 19 nM (3 of 3 replicates; controls 5 of 9).

Nonspecific signal, from three strains lacking the peptide, appeared in 21% of pairings of library AAYL51, centred on 34 µM (5% of these signals below 1.8 µM); values are not corrected for it. For each scFv, signals with the empty controls are counted beside the result.